The values that follow come from ChEMBL document CHEMBL5214979 (J Med Chem, 2022).

This data set in a line: Efflux ratio of apparent permeability in human Caco-2 cells incubated for 2 hrs by LC-MS/MS analysis. Format: ADME, cell-based. The following applies: caco-2, 2 h. On the technique in general: Passage across Caco-2 layers is used to estimate intestinal permeability.

In the case of `Cc1ccccc1Oc1cc(-n2c(=O)cc(C(F)(F)F)[nH]c2=O)c(F)cc1C#N`, the Ratio came to 6.2.
Turning to `Cc1ccccc1Oc1cc(-n2c(=O)cc(C(F)(F)F)[nH]c2=O)c2ccccc2c1` [BAY-771], the Ratio came out at 0.62.
